By UniProt entry, the sequences of proteins in these tests, tags left out.
UniProt P15625, whole entry T415G: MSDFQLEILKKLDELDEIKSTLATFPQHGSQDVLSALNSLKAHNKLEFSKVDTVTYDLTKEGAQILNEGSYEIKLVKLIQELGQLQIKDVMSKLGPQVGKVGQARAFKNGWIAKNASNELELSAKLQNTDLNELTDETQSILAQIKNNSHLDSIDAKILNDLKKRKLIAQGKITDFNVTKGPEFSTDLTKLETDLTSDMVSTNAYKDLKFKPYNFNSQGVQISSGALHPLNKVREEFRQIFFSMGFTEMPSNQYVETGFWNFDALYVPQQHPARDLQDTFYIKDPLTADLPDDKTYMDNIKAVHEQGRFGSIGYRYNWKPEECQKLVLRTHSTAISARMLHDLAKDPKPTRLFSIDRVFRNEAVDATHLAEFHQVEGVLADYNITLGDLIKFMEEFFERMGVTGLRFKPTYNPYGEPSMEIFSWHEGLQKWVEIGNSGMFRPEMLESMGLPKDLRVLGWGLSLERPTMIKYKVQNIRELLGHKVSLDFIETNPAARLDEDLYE
UniProt P15624, whole entry partner: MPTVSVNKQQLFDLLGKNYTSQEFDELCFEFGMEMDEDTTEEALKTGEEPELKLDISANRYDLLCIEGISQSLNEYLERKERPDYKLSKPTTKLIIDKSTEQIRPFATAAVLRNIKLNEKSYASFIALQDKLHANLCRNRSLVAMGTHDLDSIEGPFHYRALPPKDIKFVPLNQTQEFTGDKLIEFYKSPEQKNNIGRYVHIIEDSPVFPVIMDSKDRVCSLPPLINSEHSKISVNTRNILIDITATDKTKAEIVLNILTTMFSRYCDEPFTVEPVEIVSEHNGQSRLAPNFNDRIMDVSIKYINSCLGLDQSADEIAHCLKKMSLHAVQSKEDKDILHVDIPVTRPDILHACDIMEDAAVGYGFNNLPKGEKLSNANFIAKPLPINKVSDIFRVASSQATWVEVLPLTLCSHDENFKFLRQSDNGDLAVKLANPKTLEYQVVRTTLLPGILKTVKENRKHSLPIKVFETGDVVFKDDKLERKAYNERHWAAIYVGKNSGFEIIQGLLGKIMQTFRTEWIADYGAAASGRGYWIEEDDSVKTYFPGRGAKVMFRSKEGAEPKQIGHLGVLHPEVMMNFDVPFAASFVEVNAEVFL

According to patent publication US8980581B2, “Site-specific incorporation of amino acids into molecules” (California Institute of Technology, priority 2006, dated 2015):

Target: external mutant yeast PheRS T415G (Saccharomyces cerevisiae, UniProt P15625, T415G)
Assay: ATP-PPi exchange of exemplary amino acids (1-11) by external mutant yeast PheRS, Example 10, Table I
Format: biochemical
Details: enzyme T415G
Description: The amino acid-dependent ATP-PP; exchange reaction was used to evaluate the activation of amino acid analogs by yPheRS as described in the above Examples. Briefly, a 200 microliter aliquot of reaction buffer contains 50 mM HEPES (pH 7.6), 20 nM MgCl2, 1 mM DTT, 2 mM ATP, and 2 mM ^32P-pyrophosphate (PPi) with specific activity of 10-50 Ci/mol. Depending on the activity of analogs by the synthetase, the amino acid concentration varied from 10 microM to 2.5 mM and enzyme concentration varied from 10 nM to 100 nM. Aliquots of 20 microliters were removed from the reaction solution at various time points and quenched into 500 microliters of buffer solution containing 200 mN NaPPi, 7% w/v HclO4, and 3% w/v activated charcoal. The charcoal was spun down and washed twice with 500 microliters of 10 mM NaPP; and 0.5% HClO4 solution. The radio-labeled ATP absorbed into the charcoal was quantified via liquid scintillation methods. The specificity constants were calculated by non linear regression fit for the data to a Michaelis Menten model.
The results of the kinetic parameters are shown in Table I. Substitution at the indole ring (especially at the 6th position) was highly favorable for some analogs (8-10).
Where the amino acids are indicated as in FIG. 2.

Compound	Km [µM]	kcat [s⁻¹]
NC(Cc1c[nH]c2cc(Br)ccc12)C(=O)O (centres unmarked)	8	0.55 ± 0.097
NC(Cc1c[nH]c2ccc(Br)cc12)C(=O)O (centres unmarked)	31	0.06 ± 0.005
NC(Cc1ccc(O)cc1)C(=O)O (centres unmarked)	757	0.4 ± 0.003
NC(Cc1ccc2ccccc2c1)C(=O)O (centres unmarked)	27	0.04 ± 0.001
NC(Cc1cccc2ccccc12)C(=O)O (centres unmarked)	94	0.05 ± 0.006
NC(Cc1c[nH]c2cc(Cl)ccc12)C(=O)O (centres unmarked)	20	0.20 ± 0.018
NC(Cc1c[nH]c2ccccc12)C(=O)O (centres unmarked)	20	0.30 ± 0.006
[N-]=[N+]=Nc1ccc(CC(N)C(=O)O)cc1 (centres unmarked)	11	0.05 ± 0.002
NC(Cc1ccc(I)cc1)C(=O)O (centres unmarked)	12	0.05 ± 0.001
NC(Cc1ccc(Br)cc1)C(=O)O (centres unmarked)	22	0.03 ± 0.001
